For data set [1], the target named is T1, Butyrylcholinesterase (BuChE) from equine serum (Equus caballus, UniProt P81908). The data set can be described thus: Ellman assay, BuChE inhibition.
The target in data set [2] is Acetylcholinesterase (AChE) from electric eel (Electrophorus electricus, UniProt O42275). In words: Kinetic analysis of AChE inhibition, Lineweaver-Burk plots. The following applies: for Km / VMAX: AChE; for Type of AChE inhibition: from L-B plots, VMAX and KM.
Data set [3] deals with Acetylcholinesterase (AChE) (EC 3.1.1.7) from electric eel (Electrophorus electricus, UniProt O42275). The data set can be described thus: Ellman assay, AChE inhibition.
The conditions of data set [4]: estimated; in mice; cited from earlier work.
Data set [5] concerns the target T1, Butyrylcholinesterase (BuChE) from equine serum. In words: Kinetic analysis of BuChE inhibition, Lineweaver-Burk plots. The following applies: for VMAX: BuChE.
Setting [6] is: inhibitor 5.000 mg/mL, final assay concentration 0.371 µmol/mL.
[7] abbreviates: inhibitor 2.500 mg/mL, 0.186 µmol/mL.
The mark [8] stands for this setting: inhibitor 5.000 mg/mL, 0.371 µmol/mL.
The mark [9] stands for this setting: minimum concentration for statistically significant inhibition, one-way ANOVA with post-hoc Tukey.
Where [10] appears, read: inhibitor 5.000 mg/mL, final assay concentration 0.248 µmol/mL.
Setting [11] is: inhibitor 2.500 mg/mL, 0.124 µmol/mL.
The mark [12] stands for this setting: inhibitor 5.000 mg/mL, 0.248 µmol/mL.
The mark [13] stands for this setting: inhibitor 2.000 mg/mL, final assay concentration 0.103 µmol/mL.
Where [14] appears, read: inhibitor 1.000 mg/mL, 0.051 µmol/mL.
Where [15] appears, read: inhibitor 2.000 mg/mL, 0.103 µmol/mL.

Sequences of proteins named here, by UniProt entry; tags and fusion partners are left off. Residues count along the entry.
UniProt P81908, whole entry, looked up: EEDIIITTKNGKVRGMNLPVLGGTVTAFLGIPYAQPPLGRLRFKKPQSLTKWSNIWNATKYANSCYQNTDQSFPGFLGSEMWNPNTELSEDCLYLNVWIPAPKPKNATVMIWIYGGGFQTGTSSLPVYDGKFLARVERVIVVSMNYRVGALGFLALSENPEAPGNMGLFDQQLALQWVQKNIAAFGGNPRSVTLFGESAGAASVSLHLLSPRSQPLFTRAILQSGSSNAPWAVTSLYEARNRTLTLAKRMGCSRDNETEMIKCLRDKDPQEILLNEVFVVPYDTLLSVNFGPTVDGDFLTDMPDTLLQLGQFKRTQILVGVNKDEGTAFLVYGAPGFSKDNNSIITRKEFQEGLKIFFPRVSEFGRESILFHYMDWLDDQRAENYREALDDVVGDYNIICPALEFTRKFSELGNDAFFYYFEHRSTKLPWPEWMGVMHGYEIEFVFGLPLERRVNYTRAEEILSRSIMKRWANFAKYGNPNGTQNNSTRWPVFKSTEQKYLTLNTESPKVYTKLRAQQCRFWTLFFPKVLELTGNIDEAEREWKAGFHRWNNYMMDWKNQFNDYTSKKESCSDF
UniProt O42275, 24-633 limits assumed: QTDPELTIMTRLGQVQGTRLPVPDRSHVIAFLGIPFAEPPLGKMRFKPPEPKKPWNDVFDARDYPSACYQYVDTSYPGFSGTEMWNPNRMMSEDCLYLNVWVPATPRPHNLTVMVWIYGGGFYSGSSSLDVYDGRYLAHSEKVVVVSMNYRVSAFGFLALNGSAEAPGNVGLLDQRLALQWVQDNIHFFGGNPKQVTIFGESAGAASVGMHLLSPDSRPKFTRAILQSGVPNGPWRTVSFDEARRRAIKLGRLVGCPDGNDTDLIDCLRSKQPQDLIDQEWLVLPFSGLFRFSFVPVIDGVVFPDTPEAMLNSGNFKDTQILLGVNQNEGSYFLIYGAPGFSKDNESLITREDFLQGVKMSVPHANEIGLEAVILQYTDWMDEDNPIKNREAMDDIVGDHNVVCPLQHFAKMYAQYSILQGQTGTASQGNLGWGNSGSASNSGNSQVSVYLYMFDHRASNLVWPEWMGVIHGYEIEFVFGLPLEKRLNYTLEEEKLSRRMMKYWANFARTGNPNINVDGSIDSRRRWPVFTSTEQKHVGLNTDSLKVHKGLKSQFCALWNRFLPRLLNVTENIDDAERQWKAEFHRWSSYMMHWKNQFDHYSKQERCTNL

For `Oc1cc(O)c2c(c1)O[C@H](c1cc(O)c(O)c(O)c1)[C@H](O)C2`, in data set [1] (setting [6]), the “BuChE Inhibition (%)” value was determined as 47.72%. Besides, in data set [2] (setting [7]), the Km was 25 µM and the VMAX is recorded as 0.013 mM. In data set [2] (setting [8]), the Km worked out at 27 µM and the VMAX was 0.009 mM. In addition, in data set [2], the “Type of AChE inhibition” value is listed as “uncompetitive”. In addition, the “AChE Inhibition (%)” value in data set [3] (setting [6]) turned out to be 82.65%. In addition, the “Threshold [Inhibitor] required for AChE inhibition” value in data set [3] (setting [9]) turned out to be 0.023 µmol/mL.

Turning to `O=C(O[C@@H]1Cc2c(O)cc(O)cc2O[C@@H]1c1cc(O)c(O)c(O)c1)c1cc(O)c(O)c(O)c1`, the Blood-brain barrier permeability in data set [4] is 2.8%. Moreover, the VMAX in data set [5] (inhibitor 0.125 mg/mL, 0.124 µmol/mL) came to 0.021 mM; in data set [5] (inhibitor 0.250 mg/mL, 0.248 µmol/mL) it was 0.030 mM; in data set [2] (setting [11]), 0.014 mM; in data set [2] (setting [12]), 0.081 mM. The “Type of BuChE inhibition” value in data set [5] (from L-B plots, VMAX and KM) is “competitive”. For the same molecule, the “BuChE Inhibition (%)” value in data set [1] (setting [10]) was determined as 89.64%. The “Threshold [Inhibitor] required for BuChE inhibition” value in data set [1] (setting [9]) was under 0.001 µmol/mL. Also, the Km in data set [2] (setting [11]) worked out at 94 µM; in data set [2] (setting [12]), 5300 µM. Further, the “AChE Inhibition (%)” value in data set [3] (setting [10]) turned out to be 82.35%.

`O=C(O[C@@H]1Cc2c(O)cc(O)cc2O[C@@H]1c1ccc(O)c(O)c1)c1cc(O)c(O)c(O)c1`: the “BuChE Inhibition (%)” value in data set [1] (setting [13]) is recorded as 45.65%. In addition, in data set [2] (setting [14]), the Km amounted to 75 µM and the VMAX worked out at 0.041 mM. In data set [2] (setting [15]), the Km came out at 74 µM and the VMAX is on record as 0.030 mM. The “Type of AChE inhibition” value in data set [2] was “uncompetitive”. Besides, the “AChE Inhibition (%)” value in data set [3] (setting [13]) is recorded as 37.14%.

Usually Km stands for the concentration of substrate that gives half-maximal velocity.
